Measured affinities in a library of Ab-91 heavy chain variants

All variants were tested on one target, the spike HR2 peptide PDVDLGDISGINAS (SARS-CoV-2).

Each scFv is VL, three GGGGS repeats, VH, as in the parent Ab-91, and differs from it in the CDRs of the heavy chain only.
VL: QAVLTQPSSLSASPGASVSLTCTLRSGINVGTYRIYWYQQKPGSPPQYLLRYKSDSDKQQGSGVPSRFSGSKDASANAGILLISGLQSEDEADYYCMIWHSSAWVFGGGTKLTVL
VH: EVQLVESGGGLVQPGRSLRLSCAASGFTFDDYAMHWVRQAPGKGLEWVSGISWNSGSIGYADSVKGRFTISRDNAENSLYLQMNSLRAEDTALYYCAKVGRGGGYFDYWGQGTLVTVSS

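The library (AAYL51) carries one to three amino acid substitutions per variant, with no insertions or deletions. The scFvs were displayed on barcoded MATa yeast, the peptide on MATalpha yeast. Binding brings cells together so that they mate, and sequencing counts the barcode pairs among the diploids. A regression on co-assayed BCL2-family reference pairs converts the normalised counts of each replicate to an apparent Kd. Each pool was mated in three replicate cultures.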

Each variant is given by its three heavy chain CDRs, as the data file delimits them; those of the parent are GFTFDDYAMH, GISWNSGSIGYADSVK, VGRGGGYFDY. Values are log10 of the apparent Kd in nM; lower means stronger binding. "nd" marks a missing value. The strain was present, yet no cells mated with the target were sequenced in that replicate, which points to weak or no binding. Background: pairings of library AAYL51 with three empty control strains gave a value in 21% of cases (median 4.54, 5th percentile 3.26). Values in that range, when seen in few replicates, are hard to tell from nonspecific mating. For each scFv, signals with the empty controls are counted beside the result, with their mean in brackets.

{"CDR-H1": "GFTFDDYAMN", "CDR-H2": "GISWASGSIGYADSLK", "CDR-H3": "VGRGGGYFDY", "log10 Kd (nM) by replicate": "3.75 / 5.64 / nd", "signal with controls": "2 of 9 (4.97)"}
{"CDR-H1": "GFTFDDYTMH", "CDR-H2": "GISWNQGSISYADSVK", "CDR-H3": "VGRGGGYFDY", "log10 Kd (nM) by replicate": "3.04 / 3.80 / 4.03", "signal with controls": "1 of 9 (4.29)"}
{"CDR-H1": "GFTFDDYAMH", "CDR-H2": "GISWNYGSIRYADSVK", "CDR-H3": "VGRGGGYFGY", "log10 Kd (nM) by replicate": "4.35 / 4.97 / 4.81", "signal with controls": "8 of 9 (5.17)"}
{"CDR-H1": "GFTFDDTAMH", "CDR-H2": "GISWNSGRIGYADSVK", "CDR-H3": "VNRGGGYFDY", "log10 Kd (nM) by replicate": "nd / nd / nd", "signal with controls": "0 of 9"}
{"CDR-H1": "GFTFDDYAMG", "CDR-H2": "GISWNSGSEGYYDSVK", "CDR-H3": "VGRGGGYFDY", "log10 Kd (nM) by replicate": "nd / nd / nd", "signal with controls": "0 of 9"}
{"CDR-H1": "GFFFDDYAMH", "CDR-H2": "GISWGSGSIGYADSVK", "CDR-H3": "VGRGGGYFTY", "log10 Kd (nM) by replicate": "nd / nd / nd", "signal with controls": "1 of 9 (3.84)"}
{"CDR-H1": "GRTFDDYAMH", "CDR-H2": "GISWNSGSIWYADSVK", "CDR-H3": "VGRGGGYFDS", "log10 Kd (nM) by replicate": "5.48 / 4.00 / 4.06", "signal with controls": "3 of 9 (4.96)"}
{"CDR-H1": "SFTFDDYAMA", "CDR-H2": "GISWNSGSIGYADSVK", "CDR-H3": "VGRGGGYFDY", "log10 Kd (nM) by replicate": "6.06 / 4.48 / nd", "signal with controls": "1 of 9 (4.32)"}
{"CDR-H1": "GFTSDNKAMH", "CDR-H2": "GISWNSGSIGYADSVK", "CDR-H3": "VGRGGGYFDY", "log10 Kd (nM) by replicate": "2.38 / 2.55 / 2.58", "signal with controls": "5 of 9 (4.92)"}
{"CDR-H1": "GFTIDDRAMH", "CDR-H2": "GTSWNSGSIGYADSVK", "CDR-H3": "VGRGGGYFDY", "log10 Kd (nM) by replicate": "nd / nd / nd", "signal with controls": "0 of 9"}
{"CDR-H1": "GFTFDDYAMH", "CDR-H2": "GIEWNSGSIGYADSQK", "CDR-H3": "VGWGGGYFDY", "log10 Kd (nM) by replicate": "nd / nd / nd", "signal with controls": "2 of 9 (4.54)"}
{"CDR-H1": "GFTFDDYAMH", "CDR-H2": "GISWNSGSIGYADSPK", "CDR-H3": "VGRGGGQFDY", "log10 Kd (nM) by replicate": "3.78 / 4.48 / nd", "signal with controls": "4 of 9 (5.26)"}
{"CDR-H1": "WFTFDDYYMH", "CDR-H2": "GISWNSGSIGYRDSVK", "CDR-H3": "VGRGGGYFDY", "log10 Kd (nM) by replicate": "6.34 / nd / nd", "signal with controls": "1 of 9 (4.29)"}
{"CDR-H1": "RFGFDDYAMH", "CDR-H2": "GISWNSGSIGYADSVK", "CDR-H3": "VGRGGGYFDY", "log10 Kd (nM) by replicate": "nd / 4.94 / 4.74", "signal with controls": "4 of 9 (4.61)"}
{"CDR-H1": "GFTFDDYIQH", "CDR-H2": "GISWNSGSIGYADSVK", "CDR-H3": "SGRGGGYFDY", "log10 Kd (nM) by replicate": "4.85 / 5.63 / nd", "signal with controls": "1 of 9 (4.89)"}
{"CDR-H1": "GFTFDDYAMH", "CDR-H2": "GNSWNSGSIGYADSVK", "CDR-H3": "RGRGGGYFDL", "log10 Kd (nM) by replicate": "nd / nd / nd", "signal with controls": "1 of 9 (4.35)"}
{"CDR-H1": "GFTFDDYAMH", "CDR-H2": "GQSWNQGSIGYADSVK", "CDR-H3": "DGRGGGYFDY", "log10 Kd (nM) by replicate": "nd / nd / nd", "signal with controls": "1 of 9 (5.09)"}
{"CDR-H1": "GFTFDDKKMH", "CDR-H2": "GISWNSGSIGYRDSVK", "CDR-H3": "VGRGGGYFDY", "log10 Kd (nM) by replicate": "nd / nd / 3.60", "signal with controls": "1 of 9 (4.01)"}
{"CDR-H1": "GFTFDDYAMH", "CDR-H2": "GISWNSGSIGYADSVK", "CDR-H3": "VGRGGYYFDY", "log10 Kd (nM) by replicate": "nd / nd / nd", "signal with controls": "0 of 9"}
{"CDR-H1": "GFTFVDYAME", "CDR-H2": "GIIWNSGSIGYADSVK", "CDR-H3": "VGRGGGYFDY", "log10 Kd (nM) by replicate": "nd / nd / nd", "signal with controls": "0 of 9"}
{"CDR-H1": "GFLFDDYAMH", "CDR-H2": "GKHWNSGSIGYADSVK", "CDR-H3": "VGRGGGYFDY", "log10 Kd (nM) by replicate": "6.31 / 4.35 / nd", "signal with controls": "5 of 9 (4.51)"}
{"CDR-H1": "GFTFDDYAMS", "CDR-H2": "GISWNSGSIGYADSVK", "CDR-H3": "VGRGGGYFDY", "log10 Kd (nM) by replicate": "nd / 4.52 / 4.48", "signal with controls": "3 of 9 (3.94)"}
{"CDR-H1": "GFTFDDYAAH", "CDR-H2": "GISWNSGSIGYDDSVK", "CDR-H3": "VGRNGGYFDY", "log10 Kd (nM) by replicate": "nd / 4.04 / nd", "signal with controls": "5 of 9 (4.68)"}

Extract of 4 entries:

{"CDR-H1": "SFTFDDYAMA", "CDR-H2": "GISWNSGSIGYADSVK", "CDR-H3": "VGRGGGYFDY", "log10 Kd (nM) by replicate": "6.06 / 4.48 / nd", "signal with controls": "1 of 9 (4.32)"}
{"CDR-H1": "GFTFDDYAMH", "CDR-H2": "GISWNYGSIRYADSVK", "CDR-H3": "VGRGGGYFGY", "log10 Kd (nM) by replicate": "4.35 / 4.97 / 4.81", "signal with controls": "8 of 9 (5.17)"}
{"CDR-H1": "GFTSDNKAMH", "CDR-H2": "GISWNSGSIGYADSVK", "CDR-H3": "VGRGGGYFDY", "log10 Kd (nM) by replicate": "2.38 / 2.55 / 2.58", "signal with controls": "5 of 9 (4.92)"}
{"CDR-H1": "GFTFDDYAMH", "CDR-H2": "GIEWNSGSIGYADSQK", "CDR-H3": "VGWGGGYFDY", "log10 Kd (nM) by replicate": "nd / nd / nd", "signal with controls": "2 of 9 (4.54)"}

Reference: Engelhart et al. 2022, doi:10.1038/s41597-022-01779-4. File: FLAb, binding data.